Data reported in patent US9212182B2, “Bicyclic sulfonamide compounds as sodium channel inhibitors” (AMGEN INC., priority 2013, dated 2015).

Protein sequences, listed by entry. Tags and fused reporters are not part of them.
UniProt Q15858, whole entry: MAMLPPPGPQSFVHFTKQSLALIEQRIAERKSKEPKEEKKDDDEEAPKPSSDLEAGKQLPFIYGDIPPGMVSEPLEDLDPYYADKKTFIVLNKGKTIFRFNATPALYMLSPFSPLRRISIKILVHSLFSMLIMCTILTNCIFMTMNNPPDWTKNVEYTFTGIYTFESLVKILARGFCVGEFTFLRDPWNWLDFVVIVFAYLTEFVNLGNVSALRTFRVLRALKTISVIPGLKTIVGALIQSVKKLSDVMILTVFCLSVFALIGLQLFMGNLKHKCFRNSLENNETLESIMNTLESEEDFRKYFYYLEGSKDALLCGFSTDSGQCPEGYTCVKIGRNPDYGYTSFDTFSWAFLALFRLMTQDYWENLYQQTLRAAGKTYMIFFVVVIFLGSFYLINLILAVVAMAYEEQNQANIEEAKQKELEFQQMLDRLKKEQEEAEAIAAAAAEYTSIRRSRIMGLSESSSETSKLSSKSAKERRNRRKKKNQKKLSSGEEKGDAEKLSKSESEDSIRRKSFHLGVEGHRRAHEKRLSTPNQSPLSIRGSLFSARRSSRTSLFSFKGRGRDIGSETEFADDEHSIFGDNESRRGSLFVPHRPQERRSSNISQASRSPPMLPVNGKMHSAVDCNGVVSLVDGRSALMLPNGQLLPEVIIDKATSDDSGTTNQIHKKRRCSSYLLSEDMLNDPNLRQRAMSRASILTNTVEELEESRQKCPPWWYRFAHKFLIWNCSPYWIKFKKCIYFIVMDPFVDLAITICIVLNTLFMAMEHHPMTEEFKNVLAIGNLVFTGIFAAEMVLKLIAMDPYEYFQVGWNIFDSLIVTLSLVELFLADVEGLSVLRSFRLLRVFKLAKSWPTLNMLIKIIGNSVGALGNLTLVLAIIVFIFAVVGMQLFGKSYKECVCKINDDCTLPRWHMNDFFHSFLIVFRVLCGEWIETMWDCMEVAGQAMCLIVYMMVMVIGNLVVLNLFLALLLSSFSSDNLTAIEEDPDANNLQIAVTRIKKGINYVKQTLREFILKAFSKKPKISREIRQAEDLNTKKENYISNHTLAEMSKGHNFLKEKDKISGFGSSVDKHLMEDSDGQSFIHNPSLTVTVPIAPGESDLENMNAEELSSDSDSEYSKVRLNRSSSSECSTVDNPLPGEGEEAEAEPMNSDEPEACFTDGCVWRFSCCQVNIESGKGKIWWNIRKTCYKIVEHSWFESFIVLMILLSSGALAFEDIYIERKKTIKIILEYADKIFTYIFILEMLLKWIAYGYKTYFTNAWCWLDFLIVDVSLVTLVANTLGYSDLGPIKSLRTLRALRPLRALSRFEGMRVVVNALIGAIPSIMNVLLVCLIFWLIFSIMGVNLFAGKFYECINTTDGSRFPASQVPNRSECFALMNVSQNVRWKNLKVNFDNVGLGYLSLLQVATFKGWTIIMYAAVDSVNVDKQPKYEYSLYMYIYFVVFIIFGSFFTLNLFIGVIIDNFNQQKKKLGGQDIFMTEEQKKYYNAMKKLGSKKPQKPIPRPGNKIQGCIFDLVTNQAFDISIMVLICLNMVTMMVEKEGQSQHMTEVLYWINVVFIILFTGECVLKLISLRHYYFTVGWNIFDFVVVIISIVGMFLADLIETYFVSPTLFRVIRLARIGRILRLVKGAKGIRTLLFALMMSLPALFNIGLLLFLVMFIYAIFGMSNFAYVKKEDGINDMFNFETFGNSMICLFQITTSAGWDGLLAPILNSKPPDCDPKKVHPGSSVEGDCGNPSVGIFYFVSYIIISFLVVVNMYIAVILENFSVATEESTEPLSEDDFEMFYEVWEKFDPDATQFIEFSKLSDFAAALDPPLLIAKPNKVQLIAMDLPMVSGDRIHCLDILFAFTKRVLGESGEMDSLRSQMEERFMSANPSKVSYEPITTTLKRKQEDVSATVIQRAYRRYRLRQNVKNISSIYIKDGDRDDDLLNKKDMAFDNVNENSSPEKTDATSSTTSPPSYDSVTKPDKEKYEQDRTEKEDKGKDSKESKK

Target: Nav 1.7 (Homo sapiens (Human), UniProt Q15858)
Test: in-vitro Nav 1.7 PX (IC50)
Type: cell-based
Details: in-vitro Nav 1.7 PX data

1-(4′-chloro-2-fluoro-5-methoxy-3′-methyl-4-biphenylyl)-2-oxo-N-2-pyrimidinyl-1,2-dihydro-6-quinoxalinesulfonamide [Example 1002]
IC50: 236 nM
